## Binding of CDR-mutated scFvs to a peptide of the spike HR2 region

Binding partner: SARS-CoV-2 spike HR2 peptide, sequence PDVDLGDISGINAS.

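AAYL52 was designed without a model: most single CDR substitutions and a random sample of double and triple ones. In AlphaSeq, yeast of one mating type display the scFv and yeast of the other type display the target. Mating (16 h, 30 °C) was followed by selection of diploids and sequencing of their barcodes. Each replicate has its own calibration line, from reference interactions of the BCL2 family. The assay was run in three technical replicates.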

The variants keep the heavy chain, the linker and the frameworks of Ab-95 (scFv order VH, three GGGGS repeats, VL).
VH: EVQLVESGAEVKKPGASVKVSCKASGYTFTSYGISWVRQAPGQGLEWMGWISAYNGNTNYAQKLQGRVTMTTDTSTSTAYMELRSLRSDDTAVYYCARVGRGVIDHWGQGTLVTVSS
VL: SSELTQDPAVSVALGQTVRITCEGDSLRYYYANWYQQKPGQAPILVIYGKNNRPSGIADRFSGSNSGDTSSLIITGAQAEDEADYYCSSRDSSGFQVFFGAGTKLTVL

The parent's light chain CDRs are EGDSLRYYYAN, GKNNRPS, SSRDSSGFQVF; each variant's own CDRs replace them letter for letter.
Every variant below is changed at Y31 of the VL (sequential numbering).
The Kd shown is the geometric mean over detected replicates; a lower Kd is a better binder.

Variant EGDYLRYFHAN | GKNNRPS | SSRDSSGFQVF showed 850 nM (3 of 3 replicates; controls 1 of 9). Variant EADSLRYYMAN | GKNNRPS | SSRDSSCFQVF gave 2.5 µM (1 of 3 replicates; controls 1 of 9). With EGDSLRYYTAN | GKNNRPS | SSRDSEGFQVL the result was 270 nM (2 of 3 replicates; controls 3 of 9). For EGDSLRYYEAN | GKNNRPS | SSTDSSGFQMF, the assay gave 2.7 µM (1 of 3 replicates; controls 3 of 9). With EGDSLRYYKKN | GKLNRPS | SSRDSSGFQVF the result was 35 µM (1 of 3 replicates; controls 1 of 9). Variant EGDSLRYYTAN | GKNVRPS | SRRDSSGFQVF gave 260 nM (3 of 3 replicates; controls 1 of 9).

For EGDSLRYYLWN | GKNNRPS | SSRDSSGFQVF, the assay gave 1.1 µM (2 of 3 replicates; controls 4 of 9). Variant EGDDLRYYCAH | GKNNRPS | SSRDSSGFQVF gave 20 µM (1 of 3 replicates; controls 4 of 9). Variant EGDILRYYVAN | GKNNRPS | SLRDSSGFQVF showed 3.8 µM (1 of 3 replicates; controls 2 of 9). With EGHSLRYYAAN | GKPNRPS | SSRDSSGFQVF the result was 1.2 µM (3 of 3 replicates; controls 1 of 9). With EGDSLRYYHAN | EKNNRPS | SSRDSSGFQGF the result was 89 nM (3 of 3 replicates; controls 1 of 9). For EGDSLRYYPAN | GKNNRPS | SSRDSAWFQVF, the assay gave 1.5 µM (2 of 3 replicates; controls 2 of 9).

For EWDSLRYYDAN | GKNNRPS | SSSDSSGFQVF, the assay gave 1.8 µM (3 of 3 replicates; controls 1 of 9). With EGDSLRYYDRN | GKNNRPS | SSRDSSGRQVF the result was 110 nM (3 of 3 replicates; controls 1 of 9). Variant EGDSRRYYNAN | GFNNRPS | SSRDSSGFQVF showed 3.6 µM (3 of 3 replicates; controls 3 of 9). With EGDSLRYYTAN | GKNNRLA | SSRDSSGFQVF the result was 1.9 µM (3 of 3 replicates; controls 2 of 9). Variant EGDSLRYYHAN | GKNNRPS | SSRCQSGFQVF gave 91 nM (3 of 3 replicates; controls 3 of 9). Variant EGDSLRYYQAN | GKNNRPS | SSRDSSGFQVF showed 50 nM (3 of 3 replicates; controls 6 of 9).

Variant EGDSLRYYFAN | VKNNRPS | SSRDSSVFQVF showed 720 µM (1 of 3 replicates; controls 8 of 9). Variant EYDSLRYYDAN | GKNNRPS | SCRDSSGFQVF showed 55 nM (3 of 3 replicates; controls 3 of 9). Variant EGDSLRYYLAN | GKNNRPS | SERDSSGFQVA showed 9.1 µM (1 of 3 replicates; controls 2 of 9). Variant EGDSLRYYFPN | GWNNRPS | SSRDSSGFQVF gave 66 nM (3 of 3 replicates; controls 3 of 9). For EGDSLRYYPAN | GKNNRWS | YSRDSSGFQVF, the assay gave 76 nM (3 of 3 replicates; controls 4 of 9). With EGDSLRYYGAN | GKNNRPS | SSYDSSGFQVW the result was 590 nM (3 of 3 replicates; controls 0 of 9).

Variant EGDSLRYYAAN | GKNNRPS | SSRDSSGFQHH gave 730 nM (3 of 3 replicates; controls 3 of 9). For EGDSLDYYDAN | GKNNRSS | SSRDSSGFQVF, the assay gave 88 nM (3 of 3 replicates; controls 0 of 9). Variant EGDSLRYYVAN | GKNNRPS | SSRDSSGFQVF gave 28 nM (3 of 3 replicates; controls 5 of 9). Variant EGDSNRYYFFN | GKNNRPS | SSRDSSGFQVF showed 31 µM (2 of 3 replicates; controls 4 of 9). Variant EGDWLRYYNAN | GKNNRPS | WSRDSSGFQVF showed 11 µM (2 of 3 replicates; controls 2 of 9). With EGDSLRYYNAN | DKNNRPS | SSGDSSGFQVF the result was 1.9 µM (2 of 3 replicates; controls 3 of 9).

Variant EGDSLRYYSAN | YKNIRPS | SSRDSSGFQVF gave 6.4 µM (3 of 3 replicates; controls 3 of 9). With EGDSFRYYQAN | GKNNRPS | SSRGSSGFQVF the result was 720 nM (3 of 3 replicates; controls 4 of 9). Variant EGDSLRYYHAN | GNNNRPS | SSRDSIGFQVF gave 71 nM (3 of 3 replicates; controls 4 of 9). With EGDSLRMYAAN | GKNNRPS | SSRDSSGFQVF the result was 130 nM (3 of 3 replicates; controls 3 of 9). For EKDSLRYYFAN | GKNNRGS | SSRDSSGFQVF, the assay gave 21 µM (1 of 3 replicates; controls 1 of 9). Variant EGDSLRIYFAN | GWNNRPS | SSRDSSGFQVF showed 460 µM (1 of 3 replicates; controls 5 of 9).

Variant EGDSLRYYHAN | GKNNRPS | SSRDSSGFQVF gave 48 nM (3 of 3 replicates; controls 0 of 9). Variant EGDSLRYYPAN | GKKNRPS | SSRDSSGFQVF gave 260 nM (3 of 3 replicates; controls 2 of 9). For EGDSLRYYAAN | GKNNNPS | SSRDSNGFQVF, the assay gave 4.4 µM (3 of 3 replicates; controls 1 of 9). With EGDSLRYYQAN | GKNARPS | SSRDSSGFQVF the result was 14 nM (3 of 3 replicates; controls 6 of 9). Variant EGDSLRYYKAN | GKNNRPS | FSRDLSGFQVF gave 7.4 µM (1 of 3 replicates; controls 0 of 9).

Repeated from above, the 7 best binders with a signal in all replicates:

CDR-L1	CDR-L2	CDR-L3	Kd	replicates with signal	control signals
EGDSLRYYQAN	GKNARPS	SSRDSSGFQVF	14 nM	3 of 3	6 of 9
EGDSLRYYVAN	GKNNRPS	SSRDSSGFQVF	28 nM	3 of 3	5 of 9
EGDSLRYYHAN	GKNNRPS	SSRDSSGFQVF	48 nM	3 of 3	0 of 9
EGDSLRYYQAN	GKNNRPS	SSRDSSGFQVF	50 nM	3 of 3	6 of 9
EYDSLRYYDAN	GKNNRPS	SCRDSSGFQVF	55 nM	3 of 3	3 of 9
EGDSLRYYFPN	GWNNRPS	SSRDSSGFQVF	66 nM	3 of 3	3 of 9
EGDSLRYYHAN	GNNNRPS	SSRDSIGFQVF	71 nM	3 of 3	4 of 9

Nonspecific signal, from three strains lacking the peptide, appeared in 28% of pairings of library AAYL52, centred on 8.2 µM (5% of these signals below 800 nM); values are not corrected for it. For each scFv, signals with the empty controls are counted beside the result.

Data: MIT Lincoln Laboratory AlphaSeq set, Engelhart et al. 2022, doi:10.1038/s41597-022-01779-4, as distributed in FLAb.